This experiment concerns DosRS regulon. In words: RNA-seq transcriptional profiling under microaerophilic conditions, WT strain. The conditions noted are these: 20 μM.

Molecules are shown by their SMILES.

With `C[C@@H]1CC[C@H]2[C@@H](C)C(=O)O[C@@H]3O[C@@]4(C)CC[C@@H]1[C@]32OO4` [ART, artemisinin], the “genes repressed that are also downregulated in the dosRS KO” value is “repressed the expression of half of the genes”.
With `c1cc([C@H]2CC[C@]3(CC2)OO[C@]2(O3)C3CC4CC(C3)CC2C4)ccc1OCCN1CCOCC1` [OZ439, artefenomel], the “genes repressed that are also downregulated in the dosRS KO” value is on record as “inhibiting five common genes”.

(Values after US20240139148A1, “COMPOSITIONS AND METHODS FOR TREATING NON-TUBERCULOUS MYCOBACTERIAL INFECTIONS” (priority 2021, published 2024).)
